{
  "sequences": {"note": "Amino acid sequences for entries named in this document (tags omitted).", "UniProt P48039, whole entry": "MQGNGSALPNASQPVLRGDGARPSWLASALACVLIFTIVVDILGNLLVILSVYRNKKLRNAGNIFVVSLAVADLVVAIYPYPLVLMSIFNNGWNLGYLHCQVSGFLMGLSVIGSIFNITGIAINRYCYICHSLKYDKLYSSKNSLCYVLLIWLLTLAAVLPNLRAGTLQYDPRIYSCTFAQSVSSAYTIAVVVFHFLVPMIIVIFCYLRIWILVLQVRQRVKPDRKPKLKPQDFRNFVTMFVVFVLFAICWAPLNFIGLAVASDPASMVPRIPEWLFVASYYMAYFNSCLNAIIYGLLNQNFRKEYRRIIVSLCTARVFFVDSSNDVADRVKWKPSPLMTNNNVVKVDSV"},
  "source": "patent US5856529A",
  "about": "“Benzofuran and dihydrobenzofuran melatonergic agents” (Bristol-Myers Squibb Company, priority 1997, dated 1999)",
  "target": "ML1a human melatonin receptor (Homo sapiens, UniProt P48039)",
  "test": "Melatonergic Receptor Binding Activity (2-[125I]-iodomelatonin, membranes of NIH-3T3 cells expressing ML1a receptor)",
  "conditions": "read-out: Melatonin Binding Affinity (IC50), 37° C. for 1 hour",
  "description": "Melatonergic Receptor Binding Activity\n(a) TME=50 mM Tris buffer containing 12.5 mM MgCl2, and 2 mM EDTA, pH 7.4 at 37° C. with concentrated HCl.\n(b) Wash buffer: 20 mM Tris base containing 2 mM MgCl2, pH 7.4 at room temperature.\n(c) 10^-4 M melatonin (10^-5 M final concentration).\n(d) 2-[^125 I]-iodomelatonin, […] final concentration\nThe melatonin ML1a receptor cDNA was subcloned into pcDNA3 and introduced into NIH-3T3 cells using Lipofectamine. Transformed NIH-3T3 cells resistant to geneticin (G-418) were isolated, and single colonies expressing high levels of 2[^125 I]-iodomelatonin binding were isolated. Cells are maintained in DMEM supplemented with 10% calf serum and G-418 (0.5 g/liter). Cells are grown to confluency in T-175 flasks, scraped using Hank's balanced salt solution, and frozen at -80° C. For preparing membrane homogenates, pellets are thawed on ice, and resuspended in TME buffer in the presence of 10 μg/ml aprotinin and leupeptin, and 100 μM phenylmethylsulfonylfluoride. The cells were then homogenized using a dounce homogenizer, and centrifuged. The resulting pellet was resuspended with dounce homogenizer in TME (supplemented with the above protease inhibitors) and frozen. On the day of assay, the small aliquot was thawed on ice and resuspended in ice cold TME (1:50-1:100 v/v) and held on ice until assayed.\n3. Incubation: 37° C. for 1 hour. […]",
  "data": [
    {"smiles": "CCNC(=O)NCC1CC1c1cccc2c1OCCO2", "note": "(stereo not shown)", "values": [
      {"measurement": "IC50", "result": "0.1 to 0.25", "unit": "µM"}
    ]}
  ]
}
